{"source": "patent EP0553673A1", "about": "(priority 1992, dated 1993)", "test_system": "Krebszellen der Zellinie BIR-M1Rk", "conditions": "BIR-M1Rk cells", "data": [{"smiles": "COC(C)(CCOP(N)(=O)N(CCCl)CCCl)OC", "note": "(racemic)", "values": [{"measurement": "um den Faktor verringerte Überlebensrate der Krebszellen", "setting": "pH 6,2 of the medium, model for a cancer cell population under hyperglycaemia, dose 10 µg/ml", "value": "10 000"}, {"measurement": "Toxizität", "setting": "pH 7,4 of the medium, model for a normal cell population", "value": "nur eine geringe Toxizität"}]}]}
